# Apparent affinities of Ab-14 variants for a coronavirus HR2 peptide

Binding partner: SARS-CoV-2 spike HR2 peptide, sequence PDVDLGDISGINAS.

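The starting antibody came from a phage panning campaign against this peptide. This is the validation round: designs drawn from the data on random variants, tested in the same kind of assay. Their group label is 14L_GP_Gen (GP: Gaussian process model; Gen: genetic algorithm; a sequence that several methods proposed may carry one label only). AlphaSeq pools MATa yeast showing the antibodies with MATalpha yeast showing the peptide. Mating (16 h, 30 °C) was followed by selection of diploids and sequencing of their barcodes. Each replicate has its own calibration line, from reference interactions of the BCL2 family. The assay was run in six technical replicates.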

Each scFv is VH, three GGGGS repeats, VL, as in the parent Ab-14, and differs from it in the CDRs of the light chain only.
VH: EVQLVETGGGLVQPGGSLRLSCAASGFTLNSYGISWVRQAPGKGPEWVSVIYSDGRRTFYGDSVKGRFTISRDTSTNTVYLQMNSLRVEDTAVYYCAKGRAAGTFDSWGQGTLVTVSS
VL: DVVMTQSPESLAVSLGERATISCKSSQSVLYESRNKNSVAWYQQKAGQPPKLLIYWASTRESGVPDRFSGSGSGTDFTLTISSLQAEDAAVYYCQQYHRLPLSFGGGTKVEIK

Each variant is given by its three light chain CDRs, as the data file delimits them; those of the parent are KSSQSVLYESRNKNSVA, WASTRES, QQYHRLPLS. Numbers give log10(Kd / nM), so 0 is 1 nM and 3 is 1 µM. Smaller is tighter. A mean of the replicates is given; it leaves out those without a signal. A pair that was not seen in that replicate is written "ND"; this usually means weak binding, but a binder can also be missed. Of ten entries with the parent sequence, four were seen in most replicates (averages 0.34 to 2.37), three in one and three in none, so single entries are noisy. Nonspecific signal, from three strains lacking the peptide, appeared in 4% of pairings of all light chain designs, centred on 2.64 (5% of these signals below 1.59); values are not corrected for it. The control count says in how many pairings with the empty strains this scFv gave a signal, with their mean in brackets. The authors averaged sequences with at least three values out of six and counted those with two or fewer as poor binders. The range of this assay differs from that of the first round, and the authors advise against merging the two.

CDR-L1 | CDR-L2 | CDR-L3 | replicates, log10 nM | log10 Kd (nM), mean | empty controls
KLSQSELYESRNKNSVA | NASTRES | QSYHRLPLS | 0.28 0.30 0.41 -0.17 -0.05 0.20 | 0.16 | 0 of 18
KLSQSWLYESRNKNSVA | NASQRMS | QQYHRLPLS | 0.01 -0.24 -0.31 -0.36 -0.36 -0.19 | -0.24 | 0 of 18
KLQQSVLYESRNKNSVA | NASTRES | QQYHRLPLS | -0.16 -0.37 -0.43 -0.47 -0.44 -0.25 | -0.35 | 2 of 18 (2.18)
KVSQSYLYESRNKNSVA | EASTRES | QQYHRLPLS | 0.29 0.20 0.42 0.26 0.29 0.21 | 0.28 | 2 of 18 (3.70)
KLSQSVLYESRNKNSVA | GASQRES | QQYHRLPLS | -0.14 -0.28 -0.21 -0.44 -0.24 -0.17 | -0.25 | 3 of 18 (2.75)
KVSQSFLYESRNKNSVA | DASQRES | QQYHRLPLS | -0.01 -0.21 -0.42 -0.43 -0.46 -0.34 | -0.31 | 1 of 18 (2.91)
KLSQSVLYESRNKNSVA | NASQREE | QQYHRLPLS | -0.24 -0.28 -0.48 -0.64 -0.42 -0.26 | -0.39 | 0 of 18
KLQQSVQYESRNKNSVA | NASTRLS | QQYHRLPLS | 0.25 0.11 0.01 0.55 -0.01 0.18 | 0.18 | 0 of 18
KLPQSQDYESRNKNSVA | NASTRES | QQYHRLPLS | -0.27 -0.41 -0.43 -0.49 -0.51 -0.11 | -0.37 | 1 of 18 (2.39)
KFSQSVLYESRNKNSVA | EGSTRES | QQYHRLPLS | -0.02 0.11 0.01 -0.02 -0.09 0.04 | 0.01 | 1 of 18 (3.64)
KLSQSVLYEDRNKNSVA | NASTRLS | QQYHRLPLS | -0.09 -0.28 -0.13 -0.27 0.03 -0.10 | -0.14 | 2 of 18 (1.96)
KLSQSVLYESRNKNSVA | NASTRLQ | QQYHRLPLS | 0.09 0.13 -0.09 -0.09 0.08 0.15 | 0.05 | 4 of 18 (2.97)
KLSQSVCYESRNKNSVA | EASTRES | QQYHRLPLS | -0.03 -0.18 -0.23 -0.25 -0.24 -0.20 | -0.19 | 3 of 18 (3.46)
KLSQSELYESRNKNSVA | NASKRMS | QQYHRLPLS | 0.03 0.21 0.02 0.17 -0.17 0.30 | 0.09 | 1 of 18 (2.90)
FLSQSNLYESRNKNSVA | NASTRES | QQYHRLPLS | 0.43 0.12 0.42 0.00 -0.02 0.37 | 0.22 | 0 of 18
KLSQSVLYESRMKNAVA | NASTRES | QQYHRLPLS | 0.06 -0.40 -0.52 -0.60 -0.30 -0.12 | -0.31 | 0 of 18
KLSESWLYESRNKNSVA | EASTRES | QQYHRLPLS | 0.11 0.34 0.27 0.20 0.24 0.37 | 0.25 | 0 of 18
KLSQSVLYESRLKNNVA | DASTRES | QQYHRLPLS | 0.56 0.27 0.18 0.11 0.21 0.32 | 0.28 | 2 of 18 (3.17)
KFQQSQLYESRNKNSVA | NASQRLS | QQYHRLPLS | 0.07 -0.04 -0.27 -0.38 -0.28 -0.02 | -0.16 | 1 of 18 (2.91)
KFSQSWLYESRNKNSVA | NASTRES | QQYHRLPLM | 0.02 -0.11 -0.30 -0.25 -0.36 -0.02 | -0.17 | 1 of 18 (4.29)
KYSQSELYESRNKNSVA | GASTRES | QQYHRLPLS | -0.03 -0.30 -0.24 -0.26 -0.27 -0.13 | -0.20 | 0 of 18
KLSQSVLYEDRNKNSVA | NASTRSS | QQYHRLPLS | -0.08 -0.08 0.00 0.06 -0.04 -0.09 | -0.04 | 1 of 18 (2.06)
KLSQSVLYESRNKNSVA | NANTREQ | QQYHRLPLS | -0.31 -0.27 -0.41 -0.57 -0.50 -0.23 | -0.38 | 1 of 18 (3.33)
KVSQSWWYESRNKNSVA | NASQRES | QQYHRLPLS | 0.04 -0.13 -0.27 -0.31 -0.15 -0.27 | -0.18 | 0 of 18
KLYQSQLYESRNKNSVA | NASTRLS | QQYHRLPLS | 0.01 -0.04 -0.20 -0.23 -0.13 -0.12 | -0.12 | 3 of 18 (3.06)
KLSQSVLYESRQKNAVA | NASTRES | QQYHRLPLS | -0.28 -0.39 -0.45 -0.32 -0.43 -0.32 | -0.36 | 2 of 18 (3.04)
KLQQSVLYESRMKNSVA | NASQRLS | QQYHRLPLS | 0.69 0.42 1.22 0.89 0.82 0.68 | 0.79 | 0 of 18
KLSQSVLYESRNKNNVA | GASTRCS | QQYHRLPLS | 1.52 0.65 1.47 0.63 1.66 1.69 | 1.27 | 0 of 18
KLQQSVQYESRNKNSVA | NASTRES | QQYHRLPLS | 0.26 -0.27 -0.32 -0.29 -0.36 0.00 | -0.17 | 0 of 18
KLSQSVEYESRNKNSVA | NASTRES | QQYHRLPLQ | 0.91 0.55 0.15 0.08 0.20 0.87 | 0.46 | 1 of 18 (2.82)
KSSQSVLYESRNKNNVA | DASTRES | QQYHRLPLS | 0.32 0.13 -0.11 -0.04 0.02 0.12 | 0.07 | 2 of 18 (3.34)
KFSQSVLYESRNKNSVA | HASTRES | QQYHRLPLS | 0.02 0.19 0.03 -0.03 0.08 0.11 | 0.07 | 0 of 18
KLSQSWLYESRNKNSVA | HASTRMS | QQYHRLPLS | 0.37 0.23 0.21 0.22 0.70 0.46 | 0.37 | 1 of 18 (2.76)
KLSQLVLYESRNKNSVA | GASTRES | QQYHRLPLS | -0.10 -0.14 -0.20 -0.57 -0.57 -0.39 | -0.33 | 0 of 18
KLSQSVLYESRNKNAVA | QASTRES | QQYHRLPLS | -0.31 -0.28 -0.31 -0.59 -0.40 -0.27 | -0.36 | 1 of 18 (2.59)
KLQQSVLYESRNKNSVA | NASTRYS | QQYHRLPLS | 0.15 0.15 0.00 -0.23 0.05 0.18 | 0.05 | 5 of 18 (2.99)
KLSQSWLYESRNKNSVA | GASTRES | QAYHRLPLS | 0.71 0.39 0.35 0.65 0.60 0.70 | 0.57 | 0 of 18
KLSESWLYESRNKNSVA | NASTRES | QQYHRLPLS | 0.03 0.05 -0.18 -0.08 -0.03 -0.01 | -0.04 | 1 of 18 (4.10)
KLSQSVLYEERAKNSVA | NASQRES | QQYHRLPLS | ND ND ND ND ND ND | ND | 0 of 18
KISQSVLYESRNKNSVA | EASTRMS | QQYHRLPLS | 1.16 0.64 0.56 0.99 0.82 0.93 | 0.85 | 2 of 18 (2.61)
KLPQSALYESRNKNSVA | NASTRES | QQYHRLPLS | -0.43 -0.68 -0.72 -0.70 -0.75 0.03 | -0.54 | 0 of 18
KLSQSDLYESRNWNSVA | NASTRES | QQYHRLPLS | -0.16 -0.18 -0.15 -0.15 -0.14 -0.15 | -0.16 | 2 of 18 (2.98)

For reference, 3 entries of the list once more:

CDR-L1,CDR-L2,CDR-L3,"replicates, log10 nM","log10 Kd (nM), mean",empty controls
KVSQSFLYESRNKNSVA,DASQRES,QQYHRLPLS,-0.01 -0.21 -0.42 -0.43 -0.46 -0.34,-0.31,1 of 18 (2.91)
KLSQSVCYESRNKNSVA,EASTRES,QQYHRLPLS,-0.03 -0.18 -0.23 -0.25 -0.24 -0.20,-0.19,3 of 18 (3.46)
KLQQSVQYESRNKNSVA,NASTRES,QQYHRLPLS,0.26 -0.27 -0.32 -0.29 -0.36 0.00,-0.17,0 of 18

Reference: Li et al. 2023, doi:10.1038/s41467-023-39022-2. File: FLAb, binding data.